The entries are a selection whose mix differs from that of the whole data set. Calls of active or inactive are those of the source.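 The calls were made as follows: active = activation above a cutoff set at the mean activation of all tested compounds plus 3 SD (cut at about 54% in these data); inactive = the rest, inconclusive results apart.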

By UniProt entry, the sequences of proteins in these tests, tags left out.
UniProt P21453, whole entry, looked up: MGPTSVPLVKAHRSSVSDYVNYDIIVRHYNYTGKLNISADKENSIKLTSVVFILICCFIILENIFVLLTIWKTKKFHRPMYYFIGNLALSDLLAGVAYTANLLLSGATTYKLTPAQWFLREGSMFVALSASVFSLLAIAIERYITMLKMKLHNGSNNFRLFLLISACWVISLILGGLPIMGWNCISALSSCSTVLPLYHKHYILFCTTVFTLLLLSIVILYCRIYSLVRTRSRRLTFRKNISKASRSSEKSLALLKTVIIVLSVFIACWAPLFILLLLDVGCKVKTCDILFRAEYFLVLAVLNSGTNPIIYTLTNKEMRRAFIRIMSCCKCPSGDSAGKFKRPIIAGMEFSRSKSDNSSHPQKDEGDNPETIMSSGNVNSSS

The target in this experiment is Sphingosine 1-phosphate receptor 1 (Homo sapiens) (UniProt P21453). Nature of the experiment: S1P1 agonists and agonism potentiators, primary screen, cell-based, primary and confirmation screens, CRE-bla reporter (AID 449).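 Also: forskolin at 4 µM as EC80 and the EC20 agonist is SEW2871; 100% = SEW2871 at its EC100 plus forskolin at EC80.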 Particulars: S1P1 CRE-bla cells, forskolin, beta-lactamase FRET, potentiator mode; at 9.5 µM; active compounds read high; 100% = saturating reference agonist, 0% = basal; S1P1 agonist co-added at EC20, 2 nM.
As for `COP1(=S)c2c(C)nn(CCC#N)c2N=C(c2ccc(F)cc2)N1C` (centres undefined), the activation was inactive: 4%.
As for `O=C(COc1ccccc1)OC1CN2CCC1CC2` (centres undefined), the figure is inactive: 12.7%; as for `O=C(OC1CN2CCC1CC2)C12CC3CC(CC(C3)C1)C2` (centres undefined), inactive: -10.5%; as for `CCOP1(=S)c2c(C)nn(CCC#N)c2N=C(c2ccc(F)cc2)N1C` (centres undefined), inactive: -1.6%.
Turning to `O=P(Nc1nccs1)(c1ccccc1)c1nc2ccccc2s1` (centres undefined), the activation is inactive: -36.5%.
As for `CCOP1(=S)c2c(C)nn(CCC#N)c2N=C(c2ccccc2F)N1C` (centres undefined), the figure is inactive: 5%; as for `Cc1cccc(OCC(=O)OC2CN3CCC2CC3)c1` (centres undefined), inactive: -6.3%.
As for `O=P1(Nc2ccccn2)COc2ccccc2OC1`, the activation is inactive: -3.8%.
Take `Clc1n[nH]nc1-c1nn[nH][15n]1`: the activation is inactive: 2.1%.
Turning to `O=P1(Nc2ncccn2)COc2ccccc2OC1`, the activation was inactive: 8.9%.
As to `O=P1(Nc2ccc(Br)cn2)COc2ccccc2OC1`, the activation was inactive: -8.6%.
As for `Cc1ccc(OCC(=O)OC2CN3CCC2CC3)cc1` (centres undefined), the activation is inactive: -15%.
For the compound `Cc1nn(-c2ccccc2)c2c1P(=O)(N1CCOCC1)N(C)C(c1ccccc1)=N2` (centres undefined), the activation is inactive: -2.6%.
Consider `O=C(OC1CN2CCC1CC2)c1cccc(Cl)c1` (centres undefined), for which the activation was inactive: -0.2%.
For the compound `O=P(Nc1nccs1)(c1ccccc1)c1ccccc1`, the activation was inactive: -12.2%.
Regarding `c1nnnn1CCn1cnnn1`, the activation was inactive: -15.4%.
As to `O=P1(Nc2nc3ccc(Cl)cc3s2)COc2ccccc2O1` (centres undefined), the activation was inactive: 16.5%.
`Cc1c2non([O-])c-2c(C)[n+](=O)[n+]1[O-]`: the activation was inactive: -11%.
As for `CCc1nc2c(n1)c1c(non1O)c1c2no[n+]1[O-]`, the figure is inactive: 4.8%.

Source of the values: PubChem BioAssay AID449 (The Scripps Research Institute Molecular Screening Center, 2006).
